The record followed here is US6503916B2, “Treatment of ischemic brain injury” (Board of Regents, The University of Texas System, priority 1999, dated 2003).

Read-outs that look alike come from different tables or passages of the source.

The assay deals with rat model of transient focal cerebral ischemia.

Regarding `Cn1c(=O)c2c(ncn2C)n(C)c1=O` [caffeine], where the note is “rat, in vivo, po”, the infarct volume is 122.4+/−30.2 mm^3.
Take `CCO` [ethanol]: the infarct volume (oral treatment 3 hours and 1 hour before ischemia, 3 hours MCA/CCA occlusion, 24 hours reperfusion) is reported as 177.2+/−27.8 mm^3.
